Experimental data from US6583175B2, “Alkylxanthates and use of alkylxanthates in the integrated pest management” (Council of Scientific & Industrial Research, priority 2001, dated 2003).
Like-named read-outs stand apart in the source and are kept apart here.

Experiments:
[1] = test system: Aedes aegypti; assay: Larvicidal activity against IV instar larvae of Aedes aegypti; assay type: in vivo; conditions: 24 hours
[2] = test system: Brine shrimp, Artemia salina; assay: Brine shrimp bioassay (toxic activity); conditions: Artemia salina nauplii, 24 hours
[3] = test system: Spodoptera litura; assay: Antifeedant activity against late third instar of Spodoptera litura (leaf disk, oral feeding); assay type: in vivo
[4] = test system: Spodoptera litura; conditions: topical

In the case of m-Fluorobenzyl isobutylxanthate, the “LC50 ± S.E.” value [1] is reported as 11.78 ± 2.35 µg/mL, the “LC50 ± S.E.” value [2] is reported as 22.54 ± 3.26 µg/mL and the “A.I. (Anti-feedent Index)” value ([3]; 10 μg/sq. cm.) is reported as 11.63. The “Percent leaf consumption 12 hr” value ([3]; 10 μg/sq. cm.) was 50.4%, the “Percent leaf consumption 24 hr” value ([3]; 10 μg/sq. cm.) was 75.2% and the “A.I. (Anti-feedent Index)” value ([3]; 15 μg/sq. cm.) was 16.07. The “Percent leaf consumption 12 hr” value ([3]; 15 μg/sq. cm.) was 33.24%, the “Percent leaf consumption 24 hr” value ([3]; 15 μg/sq. cm.) was 68.7% and the “A.I. (Anti-feedent Index)” value ([3]; 20 μg/sq. cm.) was 27.86. For the same substance, the “Percent leaf consumption 12 hr” value ([3]; 20 μg/sq. cm.) was 24.7%, the “Percent leaf consumption 24 hr” value ([3]; 20 μg/sq. cm.) was 53.6% and the “A.I. (Anti-feedent Index)” value ([3]; 25 μg/sq. cm.) was 48.67. The “Percent leaf consumption 12 hr” value ([3]; 25 μg/sq. cm.) was 12.5%, the “Percent leaf consumption 24 hr” value ([3]; 25 μg/sq. cm.) was 32.8% and the “Concentration required for 50% leaf protection EC50 ± S.E.” value ([3]; late third instar) was 19.65 ± 2.99 μg/cm^2. The “Adult emergence: Abnormal adults” value ([4]; 5 μg/Insect) was 32, the “Adult emergence: Intermediates” value ([4]; 5 μg/Insect) was 2 and the “Adult emergence: Non-emergence” value ([4]; 5 μg/Insect) was 0. The “Adult emergence: Normal adults” value ([4]; 5 μg/Insect) was 50, the “Larval mortality (%)” value ([4]; 5 μg/Insect) was 3% and the “Pupal Formation: Abnormal pupa” value ([4]; 5 μg/Insect) was 24. The “Pupal Formation: Normal pupa” value ([4]; 5 μg/Insect) was 73, the “Pupal Formation: Pupal Mortality” value ([4]; 5 μg/Insect) was 3 and the “Adult emergence: Abnormal adults” value ([4]; 10 μg/Insect) was 29. The “Adult emergence: Intermediates” value ([4]; 10 μg/Insect) was 4, the “Adult emergence: Non-emergence” value ([4]; 10 μg/Insect) was 1 and the “Adult emergence: Normal adults” value ([4]; 10 μg/Insect) was 49. The “Larval mortality (%)” value ([4]; 10 μg/Insect) was 10%, the “Pupal Formation: Abnormal pupa” value ([4]; 10 μg/Insect) was 32 and the “Pupal Formation: Normal pupa” value ([4]; 10 μg/Insect) was 58. For the same substance, the “Pupal Formation: Pupal Mortality” value ([4]; 10 μg/Insect) was 8, the “Adult emergence: Abnormal adults” value ([4]; 20 μg/Insect) was 22 and the “Adult emergence: Intermediates” value ([4]; 20 μg/Insect) was 8. The “Adult emergence: Non-emergence” value ([4]; 20 μg/Insect) was 0, the “Adult emergence: Normal adults” value ([4]; 20 μg/Insect) was 39 and the “Larval mortality (%)” value ([4]; 20 μg/Insect) was 27%. The “Pupal Formation: Abnormal pupa” value ([4]; 20 μg/Insect) was 30, the “Pupal Formation: Normal pupa” value ([4]; 20 μg/Insect) was 43 and the “Pupal Formation: Pupal Mortality” value ([4]; 20 μg/Insect) was 4. For the same substance, the “Adult emergence: Abnormal adults” value ([4]; 35 μg/Insect) was 14, the “Adult emergence: Intermediates” value ([4]; 35 μg/Insect) was 6 and the “Adult emergence: Non-emergence” value ([4]; 35 μg/Insect) was 0. For the same substance, the “Adult emergence: Normal adults” value ([4]; 35 μg/Insect) was 17, the “Larval mortality (%)” value ([4]; 35 μg/Insect) was 56% and the “Pupal Formation: Abnormal pupa” value ([4]; 35 μg/Insect) was 19. The “Pupal Formation: Normal pupa” value ([4]; 35 μg/Insect) was 25, the “Pupal Formation: Pupal Mortality” value ([4]; 35 μg/Insect) was 7 and the “Adult emergence: Abnormal adults” value ([4]; 50 μg/Insect) was 11. The “Adult emergence: Intermediates” value ([4]; 50 μg/Insect) was 5, the “Adult emergence: Non-emergence” value ([4]; 50 μg/Insect) was 4 and the “Adult emergence: Normal adults” value ([4]; 50 μg/Insect) was 3. The “Larval mortality (%)” value ([4]; 50 μg/Insect) was 70%, the “Pupal Formation: Abnormal pupa” value ([4]; 50 μg/Insect) was 15 and the “Pupal Formation: Normal pupa” value ([4]; 50 μg/Insect) was 13. The “Pupal Formation: Pupal Mortality” value ([4]; 50 μg/Insect) was 9, the “Adult emergence: Abnormal adults” value ([4]; 75 μg/Insect) was 3 and the “Adult emergence: Intermediates” value ([4]; 75 μg/Insect) was 1. The “Adult emergence: Non-emergence” value ([4]; 75 μg/Insect) was 2, the “Adult emergence: Normal adults” value ([4]; 75 μg/Insect) was 0 and the “Larval mortality (%)” value ([4]; 75 μg/Insect) was 83%. For the same substance, the “Pupal Formation: Abnormal pupa” value ([4]; 75 μg/Insect) was 8, the “Pupal Formation: Normal pupa” value ([4]; 75 μg/Insect) was 9 and the “Pupal Formation: Pupal Mortality” value ([4]; 75 μg/Insect) was 13. The “Adult emergence: Abnormal adults” value ([4]; 100 μg/Insect) was 0, the “Adult emergence: Intermediates” value ([4]; 100 μg/Insect) was 0 and the “Adult emergence: Non-emergence” value ([4]; 100 μg/Insect) was 0. For the same substance, the “Adult emergence: Normal adults” value ([4]; 100 μg/Insect) was 0, the “Larval mortality (%)” value ([4]; 100 μg/Insect) was 96% and the “Pupal Formation: Abnormal pupa” value ([4]; 100 μg/Insect) was 4. For the same substance, the “Pupal Formation: Normal pupa” value ([4]; 100 μg/Insect) was 0 and the “Pupal Formation: Pupal Mortality” value ([4]; 100 μg/Insect) was 4.
